Laboratory results: patent US20230265134A1

Target: Panitumumab kappa light chain (wild-type) (human)
Assay: LCMS of Fabs cleaved from IgG; 2 HC + 2 LC co-expressed in HEK293

Panitumumab heavy chain, wild-type CH1 (from UniProt P01857 1-112)
% HC1-LC1 product: 35.3% and 47.9%

Where “and” joins values, the source holds several entries; their conditions need not be identical. Equal values may be shown once.
